Values quoted from earlier work in patent US20100197717A1, “COMBINATION OF A 5HT7 RECEPTOR LIGAND AND AN OPIOID RECEPTOR LIGAND” (priority 2007, published 2010).

The chains behind the UniProt entries cited, without tags or fusion partners.
UniProt P34969, whole entry: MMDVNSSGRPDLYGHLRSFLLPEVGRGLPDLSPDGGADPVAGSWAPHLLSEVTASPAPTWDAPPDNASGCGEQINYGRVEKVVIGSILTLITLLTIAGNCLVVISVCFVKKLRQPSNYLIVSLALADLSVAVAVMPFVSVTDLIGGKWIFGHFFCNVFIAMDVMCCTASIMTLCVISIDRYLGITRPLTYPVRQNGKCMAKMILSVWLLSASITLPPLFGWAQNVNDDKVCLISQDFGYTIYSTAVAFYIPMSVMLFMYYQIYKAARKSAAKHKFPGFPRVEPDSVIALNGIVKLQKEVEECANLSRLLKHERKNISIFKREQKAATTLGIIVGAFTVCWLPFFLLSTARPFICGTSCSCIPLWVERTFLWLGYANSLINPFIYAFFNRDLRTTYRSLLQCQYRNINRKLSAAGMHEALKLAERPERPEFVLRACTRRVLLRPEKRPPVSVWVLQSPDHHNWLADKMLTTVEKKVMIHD
UniProt P08908, whole entry: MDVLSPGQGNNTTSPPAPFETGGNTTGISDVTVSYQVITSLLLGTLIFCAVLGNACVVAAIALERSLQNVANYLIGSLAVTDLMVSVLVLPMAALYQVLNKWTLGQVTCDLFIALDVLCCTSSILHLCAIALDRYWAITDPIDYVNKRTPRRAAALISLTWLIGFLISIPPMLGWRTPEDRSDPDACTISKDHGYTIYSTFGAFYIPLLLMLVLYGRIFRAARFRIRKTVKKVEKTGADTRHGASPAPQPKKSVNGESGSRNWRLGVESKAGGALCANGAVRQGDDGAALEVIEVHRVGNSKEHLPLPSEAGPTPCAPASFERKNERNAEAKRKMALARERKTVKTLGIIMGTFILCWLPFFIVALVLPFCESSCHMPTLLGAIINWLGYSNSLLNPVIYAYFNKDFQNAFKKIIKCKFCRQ

Assays:
5HT7 receptor = 5HT7 receptor (Homo sapiens, UniProt P34969); settings: statement in the definitions; cited from earlier work
5-HT1A receptor = 5-HT1A receptor (Homo sapiens, UniProt P08908); settings: statement in the description; cited from earlier work

SMILES	agonist classification on the 5-HT7 receptor (5HT7 receptor)	affinity for the 5-HT1A receptor compared with 5-HT7 (5-HT1A receptor)
NCCc1c[nH]c2ccc(C(N)=O)cc12 [5CT, 5-carboxamidotryptamine]	Full agonists	
CCCN(CCC)C1CCc2cccc(O)c2C1 (centres unmarked) [8-OH-DPAT]		clearly higher affinity
